Values quoted from earlier work as cited in US20070208041A1, “Compositions for the treatment and prevention of heart disease and methods of using same” (priority 2005, published 2007).

Test system: phenylephrine-constricted rat aorta
Conditions: with benomyl

SMILES: O=[N+]([O-])OCC(CO)(CO)CO[N+](=O)[O-]
- effect of ALDH-2 inhibitor benomyl on vasodilator response: not affected
